Results on one compound are retold here after ChEMBL document CHEMBL3886441, “Substituted pyrrolo[2,3-h][1,6]naphthyridines and compositions thereof as JAK inhibitors” (2015).

By UniProt entry, the sequences of proteins in these tests, tags left out. Where a name states a change or a piece, a line headed by the entry shows the natural chain unless it says otherwise.
UniProt P23458: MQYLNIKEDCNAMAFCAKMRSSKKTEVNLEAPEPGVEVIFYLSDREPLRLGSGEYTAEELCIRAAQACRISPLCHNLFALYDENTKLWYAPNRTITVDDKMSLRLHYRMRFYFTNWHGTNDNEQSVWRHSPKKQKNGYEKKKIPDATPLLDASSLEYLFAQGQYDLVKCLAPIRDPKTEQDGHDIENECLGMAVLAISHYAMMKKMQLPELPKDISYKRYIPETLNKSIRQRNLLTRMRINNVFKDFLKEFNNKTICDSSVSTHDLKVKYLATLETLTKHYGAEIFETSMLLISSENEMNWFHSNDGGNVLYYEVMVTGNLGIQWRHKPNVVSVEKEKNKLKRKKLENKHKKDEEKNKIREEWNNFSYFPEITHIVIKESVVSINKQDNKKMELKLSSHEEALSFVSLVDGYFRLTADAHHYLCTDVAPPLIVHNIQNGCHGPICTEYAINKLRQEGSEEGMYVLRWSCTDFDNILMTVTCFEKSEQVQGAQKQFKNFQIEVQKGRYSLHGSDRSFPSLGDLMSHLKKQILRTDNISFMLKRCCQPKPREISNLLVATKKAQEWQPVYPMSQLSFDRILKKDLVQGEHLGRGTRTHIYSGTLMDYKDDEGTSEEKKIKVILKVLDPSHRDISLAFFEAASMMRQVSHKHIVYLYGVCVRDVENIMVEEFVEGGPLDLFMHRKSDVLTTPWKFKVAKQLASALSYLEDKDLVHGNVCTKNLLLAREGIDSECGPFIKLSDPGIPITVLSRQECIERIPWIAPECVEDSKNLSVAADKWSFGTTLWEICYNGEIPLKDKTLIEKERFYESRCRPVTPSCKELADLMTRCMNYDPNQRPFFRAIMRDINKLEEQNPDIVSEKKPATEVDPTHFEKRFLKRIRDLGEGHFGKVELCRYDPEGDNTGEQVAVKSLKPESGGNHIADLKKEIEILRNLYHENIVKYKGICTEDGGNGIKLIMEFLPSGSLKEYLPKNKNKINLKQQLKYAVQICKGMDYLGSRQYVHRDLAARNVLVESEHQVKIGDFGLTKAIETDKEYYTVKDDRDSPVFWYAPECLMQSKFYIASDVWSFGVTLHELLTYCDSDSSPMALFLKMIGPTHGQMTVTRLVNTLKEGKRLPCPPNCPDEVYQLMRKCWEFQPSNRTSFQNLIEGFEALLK
UniProt O60674: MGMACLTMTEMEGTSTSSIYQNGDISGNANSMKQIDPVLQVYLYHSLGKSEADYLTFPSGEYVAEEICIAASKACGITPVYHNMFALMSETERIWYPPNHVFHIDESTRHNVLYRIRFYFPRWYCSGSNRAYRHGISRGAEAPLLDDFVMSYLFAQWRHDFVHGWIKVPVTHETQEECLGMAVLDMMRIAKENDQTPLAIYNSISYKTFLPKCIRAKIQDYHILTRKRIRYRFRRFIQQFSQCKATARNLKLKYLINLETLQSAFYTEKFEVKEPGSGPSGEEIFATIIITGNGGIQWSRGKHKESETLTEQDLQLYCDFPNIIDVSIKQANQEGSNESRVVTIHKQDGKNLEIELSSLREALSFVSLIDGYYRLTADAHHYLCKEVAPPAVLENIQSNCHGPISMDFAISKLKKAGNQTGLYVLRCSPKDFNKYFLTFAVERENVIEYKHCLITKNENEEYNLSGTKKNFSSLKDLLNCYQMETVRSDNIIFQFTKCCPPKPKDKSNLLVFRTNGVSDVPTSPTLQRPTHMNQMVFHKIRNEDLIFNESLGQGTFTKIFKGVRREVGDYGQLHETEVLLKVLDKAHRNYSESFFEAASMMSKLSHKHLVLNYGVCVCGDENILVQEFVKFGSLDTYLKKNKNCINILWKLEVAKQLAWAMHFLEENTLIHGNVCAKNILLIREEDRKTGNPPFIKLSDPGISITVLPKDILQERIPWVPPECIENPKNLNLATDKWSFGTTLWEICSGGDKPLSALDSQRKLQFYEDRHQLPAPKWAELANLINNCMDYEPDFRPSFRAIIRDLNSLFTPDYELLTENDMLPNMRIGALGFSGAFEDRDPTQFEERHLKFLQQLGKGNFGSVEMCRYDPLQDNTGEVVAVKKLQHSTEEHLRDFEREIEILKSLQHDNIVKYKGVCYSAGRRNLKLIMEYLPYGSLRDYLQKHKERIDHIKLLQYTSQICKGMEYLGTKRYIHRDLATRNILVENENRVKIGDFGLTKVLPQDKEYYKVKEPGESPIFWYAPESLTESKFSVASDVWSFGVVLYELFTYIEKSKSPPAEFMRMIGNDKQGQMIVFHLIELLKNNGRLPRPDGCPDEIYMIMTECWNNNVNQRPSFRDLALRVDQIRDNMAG
UniProt P29597: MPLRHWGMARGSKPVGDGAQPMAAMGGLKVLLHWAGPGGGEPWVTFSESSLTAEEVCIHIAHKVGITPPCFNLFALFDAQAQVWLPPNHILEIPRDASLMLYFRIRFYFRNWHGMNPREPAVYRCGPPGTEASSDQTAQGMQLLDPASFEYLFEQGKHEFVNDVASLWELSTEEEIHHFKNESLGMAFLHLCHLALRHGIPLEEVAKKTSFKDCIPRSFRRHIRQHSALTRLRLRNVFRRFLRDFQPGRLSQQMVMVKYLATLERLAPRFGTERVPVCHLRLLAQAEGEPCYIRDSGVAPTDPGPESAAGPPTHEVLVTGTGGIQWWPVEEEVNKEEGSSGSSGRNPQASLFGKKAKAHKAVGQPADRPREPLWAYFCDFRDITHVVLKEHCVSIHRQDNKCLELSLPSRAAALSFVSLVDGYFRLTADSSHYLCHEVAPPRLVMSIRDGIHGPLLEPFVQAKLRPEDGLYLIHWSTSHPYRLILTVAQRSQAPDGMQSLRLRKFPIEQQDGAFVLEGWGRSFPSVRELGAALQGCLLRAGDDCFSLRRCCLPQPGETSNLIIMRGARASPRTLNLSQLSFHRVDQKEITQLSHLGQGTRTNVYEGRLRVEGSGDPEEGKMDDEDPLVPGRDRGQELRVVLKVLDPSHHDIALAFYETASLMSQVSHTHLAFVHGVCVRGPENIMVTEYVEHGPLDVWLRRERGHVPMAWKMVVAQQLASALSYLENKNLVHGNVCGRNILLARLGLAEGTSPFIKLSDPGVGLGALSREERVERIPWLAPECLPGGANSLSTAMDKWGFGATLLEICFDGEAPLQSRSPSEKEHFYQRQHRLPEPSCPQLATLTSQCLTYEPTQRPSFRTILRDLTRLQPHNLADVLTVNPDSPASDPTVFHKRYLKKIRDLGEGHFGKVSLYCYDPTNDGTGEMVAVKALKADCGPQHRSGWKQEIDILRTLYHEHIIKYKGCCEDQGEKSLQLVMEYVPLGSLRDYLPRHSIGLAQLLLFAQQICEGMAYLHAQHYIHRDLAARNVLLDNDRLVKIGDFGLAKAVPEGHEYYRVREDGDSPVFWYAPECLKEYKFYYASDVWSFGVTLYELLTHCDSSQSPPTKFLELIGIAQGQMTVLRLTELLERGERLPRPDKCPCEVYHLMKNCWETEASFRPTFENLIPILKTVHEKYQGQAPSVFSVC

Experiment [1] concerns the target Tyrosine-protein kinase JAK1 (Homo sapiens, UniProt P23458).
Experiment [2] addresses Tyrosine-protein kinase JAK2 (Homo sapiens, UniProt O60674). Nature of the experiment: Enzyme Assay: JAK1, JAK2, JAK3 and Tyk2 were purchased from Carna Biosciences, Inc. As the substrate, LANCE Ultra ULight-JAK1 Peptide (manufactured by PerkinElmer Co., Ltd. (PE)) was used. Dilute solutions of compounds and enzymes in assay buffer (50 mM HEPES pH7.5, 1 mM EGTA, 1 mM MgCl2, 2 mM DTT, 0.01% Tween20) were dispensed into wells of a 384-well black plate. After 5 minutes of ….

Experiment [3] addresses Non-receptor tyrosine-protein kinase TYK2 (Homo sapiens, UniProt P29597). The description is as above.

With `N#Cc1ccc(CN2CCCC(c3nnn4cnc5[nH]ccc5c34)C2)cc1` (racemic), the results for the concentration for half-maximal inhibition (IC50) in experiment [1], in experiment [2] and in experiment [3] were 61 nM, 560 nM and 880 nM, respectively.
